# pIC50: −log10 of the molar value.
# Target: T1, TgGyrB (TgGyr holoenzyme) (Toxoplasma gondii, UniProt A0A7J6KFP0)
# T1 construct: gene TGRH88_002560
# Assay: biochemical
smiles,measurement,value
CO[C@@H]1[C@@H](OC(N)=O)[C@@H](O)[C@H](Oc2ccc3c(O)c(NC(=O)c4ccc(O)c(CC=C(C)C)c4)c(=O)oc3c2C)OC1(C)C [novobiocin],pIC50,~6.52

# Reference: article PMC4585971, “Functional Analyses of the Toxoplasma gondii DNA Gyrase Holoenzyme: A Janus Topoisomerase with Supercoiling and Decatenation Abilities” (Scientific Reports, 2015)
